Reference: patent US20090023602A1 (Genentech, published 2009)
Numbering of substitutions follows the chain as printed.

By UniProt entry, the sequences of proteins in these tests, tags left out. Chains listed by the source or under a name are the forms on record and can include a tag or linker.
UniProt P15692, other isoform, or with tags, fused parts or gaps limits assumed: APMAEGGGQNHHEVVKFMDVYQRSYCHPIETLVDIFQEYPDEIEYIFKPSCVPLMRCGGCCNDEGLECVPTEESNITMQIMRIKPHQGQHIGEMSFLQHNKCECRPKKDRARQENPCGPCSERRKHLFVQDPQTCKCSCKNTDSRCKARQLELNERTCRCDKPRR
UniProt Q00731, other isoform, or with tags, fused parts or gaps limits assumed: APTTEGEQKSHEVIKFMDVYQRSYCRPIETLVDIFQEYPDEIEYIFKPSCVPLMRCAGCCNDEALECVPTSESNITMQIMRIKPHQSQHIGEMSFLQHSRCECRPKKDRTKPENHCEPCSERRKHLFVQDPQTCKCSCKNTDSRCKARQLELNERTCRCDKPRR

B1: YADS-1 (Fab, V domains shown)
VH: EVQLVESGGGLVQPGGSLRLSCAASGFDIYDDDIHWVRQAPGKGLEWVAYIAPSYGYTDYADSVKGRFTISADTSKNTAYLQMNSLRAEDTAVYYCSRSSDASYSYSAMDYWGQGTLVTVSS
VL: DIQMTQSPSSLSASVGDRVTITCRASQASYSSVAWYQQKPGKAPKLLIYAASYLYSGVPSRFSGSGSGTDFTLTISSLQPEDFATYYCQSSASPATFGQGTKVEIK
B2: YADS-2 (Fab, V domains shown)
VH: EVQLVESGGGLVQPGGSLRLSCAASGFAISDYDIHWVRQAPGKGLEWVADIAPYAGATAYADSVKGRFTISADTSKNTAYLQMNSLRAEDTAVYYCSRSSYAYYAAMDYWGQGTLVTVSS
VL: DIQMTQSPSSLSASVGDRVTITCRASQSYAYAVAWYQQKPGKAPKLLIYDASYLYSGVPSRFSGSGSGTDFTLTISSLQPEDFATYYCQQAYSSPDTFGQGTKVEIK
B3: YADS-3 (Fab, V domains shown)
VH: B2 VH with A28S, D50A, A55S, A57S, A59Y, A105S
VL: B2 VL with S28A, Y29S, A30Y, A32D, D50A, A91Y, S93Y, S94A, D96A

Columns and labels:
human VEGF = molecular target: T1, human VEGF (human, UniProt P15692-4 27-191, limits assumed); test: BIACORE, h-VEGF coated on the chip, Fab injected
T1 construct: Coated on immunoplates; also called hVEGF; h-VEGF

murine VEGF = molecular target: T2, murine VEGF (murine, UniProt Q00731-2 27-190, limits assumed); test: BIACORE, m-VEGF coated on the chip, Fab injected
T2 construct: Coated on immunoplates; also called mVEGF

| Binder | Kd (human VEGF) | Kd (murine VEGF) |
| --- | --- | --- |
| B1 | 2 nM | – |
| B2 | 10 nM | – |
| B3 | 3 nM | 2.5 nM |
